By UniProt entry, the sequences of proteins in these tests, tags left out.
UniProt Q92633, whole entry: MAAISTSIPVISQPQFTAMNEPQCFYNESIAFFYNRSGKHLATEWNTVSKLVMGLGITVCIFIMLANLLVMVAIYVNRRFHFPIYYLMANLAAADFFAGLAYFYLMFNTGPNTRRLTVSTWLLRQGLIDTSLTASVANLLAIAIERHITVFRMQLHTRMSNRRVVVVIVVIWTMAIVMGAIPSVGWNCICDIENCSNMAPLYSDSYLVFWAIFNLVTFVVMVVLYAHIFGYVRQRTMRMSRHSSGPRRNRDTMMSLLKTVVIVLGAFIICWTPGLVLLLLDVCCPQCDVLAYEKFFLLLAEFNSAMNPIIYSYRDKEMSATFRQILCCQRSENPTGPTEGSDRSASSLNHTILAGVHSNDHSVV

In patent US12338203B2 (TAISHO PHARMACEUTICAL CO., LTD., priority 2019, dated 2025):

Target: human LPAR1 (Homo sapiens, UniProt Q92633)
Experiment: Test Example 1: antagonism against response of LPA-induced increase in intracellular Ca2+ concentration in RH7777 cells stably expressing human LPAR1
Assay type: cell-based
Details: read-out: IC50 value (concentration producing 50% antagonism against response of LPA-induced increase in intracellular Ca2+ concentration), Fluo-4 fluorescence, FDSS6000

| SMILES | IC50 [nM] |
| --- | --- |
| CCOc1c(C2CC2)ccc([C@@H](C)N(CCO[C@H](C)c2ccccc2)C(=O)NC2(C(=O)O)CC(OCC)C2)c1C (some centres unmarked) | 3.51 |
| CCOc1cc(C(C)N(CCCCc2ccccc2)C(=O)NC2(C(=O)O)CC(F)(F)C2)cc2c1ncn2CC (centres unmarked) | 190 |
| CCOc1cc([C@@H](C)N(CCO[C@H](C)c2ccccc2)C(=O)NC2(C(=O)O)CC(OC)C2)cc(OCC)c1C1CC1 (some centres unmarked) | 1.34 |
| CCOC(=O)C1(NC(=O)N(CCO[C@@H](C)c2ccccc2)C(C)c2cc(OCC)c(C(C)=O)c(OCC)c2)CC(F)(F)C1 (some centres unmarked) | 1360 |
| CCOc1cc(C(C)N(CCCCc2ccccc2)C(=O)NC2(C(=O)O)CC(F)(F)C2)cc(N(C)CC)c1C(C)=O (centres unmarked) | 5.05 |
| CCOc1cc([C@@H](C)N(CCO[C@@H](C)c2ccccc2)C(=O)N[C@]2(C(=O)O)C[C@H](OCC)C2)c(Cl)c(OCC)c1C(C)O (some centres unmarked) [Example 5-63] | 4.21 |
| CCOc1cc([C@@H](C)N(CCCCc2ccccc2)C(=O)NC2CCOCC2C(=O)O)c(Cl)c(OCC)c1C(C)O (some centres unmarked) | 3.84 |
| CCOc1cc(C(C)N(CCCCc2ccccc2)C(=O)NC2(C(=O)O)CC(F)(F)C2)cc(N(CC)CC)c1C(C)=O (centres unmarked) | 90.9 |
| CCOc1cc(C(C)N(CCCCc2ccccc2)C(=O)NC2(C(=O)O)CC(F)(F)C2)cn(CC)c1=O (centres unmarked) | 1530 |
| CCOc1cc([C@@H](C)N(CCCCC2CCCCC2)C(=O)NC2(C(=O)O)CC(F)(F)C2)cc(OCC)c1C | 30.7 |
| CCOc1cc(C(C)N(CCCCc2ccccc2)C(=O)NC2(C(=O)O)CC(F)(F)C2)c2cn(CC)nc2n1 (centres unmarked) | 38.3 |
| CCOc1cc(C(C)N(CCCCc2ccccc2)C(=O)NC2(C(=O)O)CC(F)(F)C2)cc2c1c(C)nc(=O)n2CC (centres unmarked) | 2120 |
| CCOc1cc([C@@H](C)N(CCCC(F)(F)c2ccccc2)C(=O)NC2CC(C(=O)O)C2)cc(OCC)c1C1CC1 (some centres unmarked) | 3.17 |
| CCOc1cc([C@@H](C)N(CCO[C@H](C)c2ccccc2)C(=O)NC2(C(=O)O)CC(OC)C2)cc(OCC)c1C(C)=O (some centres unmarked) | 4.07 |
| CCOc1cc([C@@H](C)N(CCCCc2ccccn2)C(=O)NC2(C(=O)O)CC(F)(F)C2)cc(OCC)c1C | 27.1 |
| CCOc1c(C(C)(C)O)ccc([C@@H](C)N(CCCCc2ccccc2)C(=O)NC2(C(=O)O)CC(F)(F)C2)c1C | 3.05 |
| CCOc1cc([C@@H](C)N(CCC2Cc3ccccc3C2)C(=O)NC2(C(=O)O)CC(OC)C2)c(C)c(OCC)c1C(C)=O (some centres unmarked) [Example 4-24] | 10.4 |
| CCOc1c(C2CC2)ccc([C@@H](C)N(CCO[C@@H](C)c2ccccc2)C(=O)N[C@]2(C(=O)O)C[C@@H](OCC)C2)c1Cl | 2.17 |
| CCOc1cc([C@@H](C)N(CCOCc2ccccc2)C(=O)NC2(C(=O)O)CC2)cc(OCC)c1C(C)=O | 2.29 |
| CCOc1c(C(C)=O)ccc([C@@H](C)N(CCO[C@H](C)c2ccccc2)C(=O)NC2(C(=O)O)CC(OC)C2)c1C (some centres unmarked) [Example 4-154] | 8.59 |
